In publication PMC11851449, “Blm10-Based Compounds Add to the Knowledge of How Allosteric Modulators Influence Human 20S Proteasome” (ACS Chemical Biology, 2025):
“Also recorded” adds a separate entry of the source.

What was measured:
human 20S proteasome [1] = system: T1, human 20S proteasome; assay: Susceptibility of modulators to digestion by h20S, HPLC; format: in vitro ADME; conditions: incubation with h20S for 1 or 3 hours
T1 construct: 20S proteasome was isolated from human erythrocytes; from tissue; host or cells: human erythrocytes
Text: Analyzing by HPLC the stability of the modulators in the presence of h20S proteasome, we also excluded the possibility that the lower stimulating capacity is due to increased competition with the substrate. If the action of the modulators was based solely on competition, the compounds degraded to a greater extent would impede the access of a fluorogenic substrate to the proteolytic site, resulting in diminished fluorescence. The effect that we observed, however, was exactly the opposite. […] This provides indirect evidence for an allosteric mechanism of action of Blm peptides, analogous to that of the 19S or PA200 activators. This action probably loosens the conformation of the gate leading to the catalytic channel, increasing the dynamics of its alternation between the closed and open states, thereby allowing the entry and degradation of both substrates and modulators.
Figure S9. A. Susceptibility of modulators to be substrates of the human 20S proteasome,
assessed using HPLC. Percentage of the undigested modulator was calculated based on the
area under the peak corresponding to the modulator. B. Example chromatograms recorded for
peptides alone (red) and peptides after incubation with h20S for 1 (green) or 3 hours (blue). […]

human 20S proteasome [2] = target: T1, human 20S proteasome; assay: ChT-L peptidase activity of latent h20S probed with Suc-LLVY-AMC; format: biochemical; conditions: concentration giving 50% of maximal activation; latent h20S 2.8 nM, substrate 100 μM, Tris/HCl pH 8.0, 37 °C; at least three independent experiments
Protocol: (§1) The capacity of influencing the human 20S proteasome was examined using the latent enzyme isolated from human erythrocytes. Boc-LRR-AMC, Z-LLE-AMC, and Suc-LLVY-AMC fluorogenic substrates (Enzo Life Sciences Inc.) were used for assessment of the trypsin-, caspase-, and chymotrypsin-like activities, respectively. As an additional probe, we utilized a homemade FRET-type substrate DabEDS (Lys(Dabcyl)-[…]EDANS)-Gly[36]). Stock solutions of the substrates and modulators were prepared in dimethyl sulfoxide (DMSO). […] The activity assays were performed in a 96-well plate format in 50 mM Tris/HCl, pH 8.0. The CP was used at a final concentration of 0.002 mg mL^–1 (2.8 nM). The final concentrations of LLVY, LRR, and LLE substrates were 100 μM and DabEDS 15 μM. The concentration of reagents in the tests with inhibitors was as follows: 10 μM bortezomib (tebu-bio), 50 μM leupeptin (Roth), and 10 μM activators. The release of the aminomethylcoumarin (AMC) reporter group was followed by monitoring the fluorescence emission at 460 nm (λex was 380 nm). DabEDS hydrolysis was detected by measuring the emission at 493 nm, while the excitation wavelength was set at 335 nm. Fluorescence measurements were carried out using an Infinite M200 Pro plate reader (Tecan), every 2 min for up to 60 min at 37 °C. All activity assays were performed in at least three independent replicates.

human 20S proteasome [3] = target: T1, human 20S proteasome; assay: Degradation of FRET-type polypeptide substrate DabEDS by h20S; format: biochemical; conditions: concentration giving 50% of maximal activation; latent h20S 2.8 nM, DabEDS 15 μM, Tris/HCl pH 8.0, 37 °C; at least three independent experiments
Protocol: as §1

[4] = target: human 20S proteasome (human) (UniProt P60900)
[5] = target: human 20S proteasome (human) (UniProt P60900); remark: listed apart in the source

| Molecule | stability of modulator in the presence of h20S (undigested modulator by HPLC peak area) (human 20S proteasome [1]) | EC50 (human 20S proteasome [2]) [µM] | EC50 (human 20S proteasome [3]) [µM] | EC50 of stimulation of Suc-LLVY-AMC degradation (ChT-L peptidase) by isolated latent h20S [4] [µM] | EC50 of stimulation of degradation of the FRET-type substrate DabEDS by isolated latent h20S [5] [µM] |
| --- | --- | --- | --- | --- | --- |
| CC(C)C[C@H](NC(=O)[C@@H]1CCCN1C(=O)[C@H](CCCCN)NC(=O)[C@H](CCC(N)=O)NC(=O)[C@@H](NC(=O)[C@H](Cc1ccccc1)NC(=O)[C@@H](N)CCCCN)[C@@H](C)O)C(=O)N[C@@H](Cc1c[nH]c2ccccc12)C(=O)N[C@@H](CCCNC(=N)N)C(=O)N[C@@H](CO)C(=O)N[C@@H](Cc1ccc(O)cc1)C(=O)N[C@@H](Cc1ccc(O)cc1)C(=O)N[C@@H](C)C(=O)O [Compound 2] | digested the most rapidly |  |  |  |  |
| C[C@@H](O)[C@H](NC(=O)[C@H](Cc1ccccc1)NC(=O)[C@H](Cc1ccc(O)cc1)NC(=O)[C@@H](N)CCCCN)C(=O)NCC(=O)N[C@@H](CO)C(=O)N[C@@H](CCCCN)C(=O)N[C@@H](CC(=O)O)C(=O)N[C@@H](Cc1ccc(O)cc1)C(=O)N[C@@H](CCCNC(=N)N)C(=O)N[C@@H](CCCNC(=N)N)C(=O)N[C@@H](Cc1ccc(O)cc1)C(=O)N[C@@H](Cc1ccc(O)cc1)C(=O)N[C@@H](CO)C(=O)O [Compound 14] | digested the most rapidly |  |  |  |  |
| C[C@@H](O)[C@H](NC(=O)[C@H](Cc1ccc(O)cc1)NC(=O)[C@H](Cc1ccc(O)cc1)NC(=O)[C@H](CO)NC(=O)[C@H](CCCNC(=N)N)NC(=O)[C@H](Cc1c[nH]c2ccccc12)NC(=O)[C@H](CCC(=O)O)NC(=O)[C@H](CCCCN)NC(=O)[C@H](CO)NC(=O)CNC(=O)[C@@H](NC(=O)[C@H](Cc1ccccc1)NC(=O)[C@H](Cc1ccc(O)cc1)NC(=O)[C@@H](N)CCCCN)[C@@H](C)O)C(=O)O [Compound 17] | digested the most rapidly | 3.52 ± 0.28 | 3.21 ± 0.78 |  |  |
| C[C@@H](O)[C@H](NC(=O)[C@H](Cc1ccccc1)NC(=O)[C@H](Cc1ccc(O)cc1)NC(=O)[C@@H](N)CCCCN)C(=O)NCC(=O)N[C@@H](CO)C(=O)N[C@@H](CCCCN)C(=O)N[C@@H](CC(=O)O)C(=O)N[C@@H](Cc1c[nH]c2ccccc12)C(=O)N[C@@H](CCCNC(=N)N)C(=O)N[C@@H](CO)C(=O)N[C@@H](Cc1ccc(O)cc1)C(=O)N[C@@H](Cc1ccc(O)cc1)C(=O)N[C@@H](CO)C(=O)O [Compound 18] | strong degradation; also recorded: digested the most rapidly | 3.49 ± 0.36 | 2.64 ± 0.6 |  |  |
| C[C@@H](O)[C@H](NC(=O)[C@H](Cc1ccccc1)NC(=O)[C@H](Cc1ccc(O)cc1)NC(=O)[C@@H](N)CCCCN)C(=O)NCC(=O)N[C@@H](CO)C(=O)N[C@@H](CCCCN)C(=O)N[C@@H](CC(=O)O)C(=O)N[C@@H](Cc1c[nH]c2ccccc12)C(=O)N[C@@H](CCCNC(=N)N)C(=O)N[C@@H](CO)C(=O)N[C@@H](Cc1ccc(O)cc1)C(=O)N[C@@H](CC(=O)O)C(=O)N[C@@H](CO)C(=O)O [Compound 19] | not a substrate of the proteasome; also recorded: resistant to proteolytic degradation |  |  |  |  |

The next lines start with the values.

| stability of modulator in the presence of h20S (undigested modulator by HPLC peak area) (human 20S proteasome [1]) | EC50 (human 20S proteasome [2]) [µM] | EC50 (human 20S proteasome [3]) [µM] | EC50 of stimulation of Suc-LLVY-AMC degradation (ChT-L peptidase) by isolated latent h20S [4] [µM] | EC50 of stimulation of degradation of the FRET-type substrate DabEDS by isolated latent h20S [5] [µM] | Molecule |
| --- | --- | --- | --- | --- | --- |
|  |  |  | 3.52 | 3.21 | compound 17 (Blm-pep analog) (peptide) |
|  |  |  | 3.49 | 2.64 | compound 18 (Blm-pep analog) (peptide) |
